The target of test [1] is HLA-B*4403 (human). The test can be described thus: competition with labeled probe peptide, purified HLA class I.
Test [2] addresses HLA-B*4403 (human). Description: competition vs labelled reference peptide on HLA class I.

B1: LESEFQAAL (MAGE3, position printed 301) (peptide)
peptide: LESEFQAAL
For the molecule B1, in the test with HLA-B*4403 [1], the IC50 (in general, the concentration that gives 50% inhibition) was 1 nM.

B2: RELQLRSLTEI (Her2/neu position 138, 11-mer) (peptide)
peptide: RELQLRSLTEI
B2 had an IC50 in the test with HLA-B*4403 [2] of 0.99 nM.

The values above are taken from patent publication US20060094649A1 (published 2006).
